Literature values, collected in US4318847A, “Physiologically active tetrapeptides” (Zaidan Hojin Biseibutsu Kagaku Kenkyu Kai, priority 1979, dated 1982).

Target: chymotrypsin (Bos taurus, UniProt P00766)
Conditions: prior art; cited from earlier work

For `CC(C)C[C@H](NC(=O)[C@@H](NC(=O)N[C@@H](Cc1ccccc1)C(=O)O)[C@@H]1CCN=C(N)N1)C(=O)N[C@H](C=O)Cc1ccccc1` [chymostatin], the inhibition of chymotrypsin is given as “inhibit”.
